Here are results for two molecules from PubChem BioAssay AID504614 (Sanford-Burnham Center for Chemical Genomics, 2011).

SMILES strings stand for the structures. Only a part is listed here, and it is no random draw. The source made the active and inactive calls.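 The calls were made as follows: active = mean inhibition of at least 40% at 20 µM; inactive = the rest.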

A short description of the test: Apaf-1 inhibitors, single-dose retest, confirmation, biochemical, fluorescence, DEVD-Rh110, 20 µM (AID 504614).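 Also: plate controls were DMSO wells for no effect and DEVD-CHO caspase inhibitor control wells for full effect.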 To be noted: reconstituted apoptosome, caspase-3 DEVD-Rh110 fluorescence; at 20 µM; hits give high values.
Consider `CC1=C2N=C(C=C3N=C(C(C)=C4[N-][C@@](C)([C@@H]5N=C1[C@](C)(CCC(=O)NC[C@@H](C)OP(=O)([O-])O[C@H]1[C@@H](O)[C@@H](n6cnc7cc(C)c(C)cc76)O[C@@H]1CO)[C@H]5CC(N)=O)[C@@](C)(CC(N)=O)[C@@H]4CCC(N)=O)[C@@](C)(CC(N)=O)[C@@H]3CCC(N)=O)C(C)(C)[C@@H]2CCC(N)=O.[C-]#N.[Co+3]`, for which the inhibition (commonly the drop in the measured response relative to a control, in per cent) was active: 100%. As for `O=[N+]([O-])c1cc([N+](=O)[O-])c(Nc2ccccn2)c([N+](=O)[O-])c1`, the figure is inactive: 22%.
